{"source": "paper PMC8619914", "about": "“Development of Novel Peptides for the Antimicrobial Combination Therapy against Carbapenem-Resistant Acinetobacter baumannii Infection” (Pharmaceutics, 2021)", "key": {"[1]": {"test_system": "Staphylococcus aureus (KCTC 1621)", "details": "MH media, 2 × 10^5 CFU·mL^−1, 37 °C, 16 h, absorbance 600 nm", "description": "(§1) The Gram-negative bacterial strain Escherichia coli (KCTC 1682) and Gram-positive bacterial strain Staphylococcus aureus (KCTC 1621) were purchased from the Korean Collection for Type Cultures (Jeongeup, Korea). Acinetobacter baumannii (KCCM 40203) were purchased from Korea Culture Center of Microorganisms (Seoul, Korea). Additionally, five carbapenem-resistant Acinetobacter baumanii C1–C5 (CRAB C1–C5), which have the OXA-23 gene with carbapenem-resistance were collected from the patients with CRAB bacteremia, who presented symptoms and signs of infection at Korea University Anam Hospital (Seoul, Korea) (IRB registration no. 2020AN0157). The minimum inhibitory concentrations (MIC) of the AMP and antibiotics against the various bacterial strains were assessed using the serial dilution method on Muller–Hinton (MH) media, as described previously. […] Absorbance at 600 nm was measured using a SpectraMAX microplate reader (Molecular Devices, San Jose, CA, USA).\n(§2) Measurement of the minimum inhibitory concentrations (MIC) was conducted to determine the effect of the hydrophobicity of each antimicrobial peptide on its antimicrobial activity. MIC was defined as the minimum concentration that killed more than 99% of bacteria; it was measured against two standard Gram-negative bacteria (E. coli and A. baumanii), five clinically isolated CRAB (C1–C5), and one Gram-positive bacteria (S. aureus)."}, "[2]": {"test_system": "Escherichia coli (KCTC 1682)", "details": "16 h, absorbance 600 nm", "description": "as §1, §2"}, "E. coli": {"test_system": "E. coli", "details": "50% human serum in MH medium, 16 h, 37 °C, absorbance 600 nm; measure of serum stability", "procedure": "Antibacterial activity of PapMA-3 in combination with imipenem was measured against CRAB C1 in the presence of 50% human serum. The treated cells were incubated for 16 h at 37 °C, and the absorbance at 600 nm was measured using a SpectraMAX microplate reader (Molecular Devices)."}}}
{"smiles": "CC[C@H](C)[C@H](NC(=O)CN)C(=O)NCC(=O)N[C@@H](C)C(=O)N[C@H](C(=O)N[C@@H](CC(C)C)C(=O)N[C@@H](CCCCN)C(=O)N[C@H](C(=O)N[C@@H](CC(C)C)C(=O)N[C@H](C(=O)N[C@H](C(=O)NCC(=O)N[C@@H](CC(C)C)C(=O)N1CCC[C@H]1C(=O)N[C@@H](C)C(=O)N[C@@H](CC(C)C)C(=O)N[C@H](C(=O)N[C@@H](CO)C(=O)N[C@@H](Cc1c[nH]c2ccccc12)C(=O)N[C@H](C(=O)N[C@@H](CCCCN)C(=O)N[C@@H](CCCNC(=N)N)C(=O)N[C@@H](CCCCN)C(=O)N[C@@H](CCCNC(=N)N)C(=O)N[C@@H](CCC(N)=O)C(=O)N[C@@H](CCC(N)=O)C(N)=O)[C@@H](C)CC)[C@@H](C)CC)[C@@H](C)O)[C@@H](C)O)C(C)C)C(C)C", "note": "[melittin]", "values": [{"measurement": "Minimum Inhibitory Concentration, S.aureus", "setting": "[1]", "value": 16, "unit": "µg/mL"}, {"measurement": "Minimum Inhibitory Concentration, E. coli, MH Media", "setting": "[2]; MH media without serum, 37 °C", "value": 8, "unit": "µg/mL"}, {"measurement": "Minimum Inhibitory Concentration, E. coli", "setting": "[2]; MH media, 2 × 10^5 CFU·mL^−1, 37 °C, MIC kills more than 99% of bacteria", "value": 8, "unit": "µg/mL"}, {"measurement": "Minimum Inhibitory Concentration, E. coli, + Serum (50%)", "setting": "E. coli", "value": 256, "unit": "µg/mL"}]}
